According to ChEMBL document CHEMBL1255389, “Exploiting the drug-activating properties of a novel trypanosomal nitroreductase” (Antimicrob Agents Chemother, 2010):

tested on: Trypanosoma brucei

With `NP(=O)(OCc1ccc([N+](=O)[O-])cc1C(F)(F)F)N(CCCl)CCCl` (stereo not given) as the compound, how does the Km read?
Its Km is 2.4 µM.

How did the Km turn out when `NP(=O)(OCc1c(F)cc([N+](=O)[O-])cc1F)N(CCCl)CCCl` (stereo not given) was run?
The Km was 2.8 µM.

How did the Km turn out when `NP(=O)(OCc1ccc([N+](=O)[O-])cc1)N(CCCl)CCCl` (stereo not given) was run?
Its Km is 80.3 µM.

With `NP(=O)(OCc1ccc([N+](=O)[O-])cc1Cl)N(CCCl)CCCl` (stereo not given) as the compound, how does the Km read?
Its Km is 8.4 µM.

For `NP(=O)(OCc1ccc([N+](=O)[O-])cc1F)N(CCCl)CCCl` (stereo not given), which Km is on record?
The Km was 6.9 µM.
